This assay addresses JAK2 JH1 kinase (Homo sapiens, UniProt O60674). The assay can be described thus: JAK2 JH1 enzyme assay in vitro (TR-FRET). The assay is classed as biochemical. (In general: TR-FRET usually uses a lanthanide donor and a delayed reading to cut background.)

Amino acid sequences for entries named in this document (tags omitted). Residues count along the entry.
UniProt O60674, 849-1124 limits assumed: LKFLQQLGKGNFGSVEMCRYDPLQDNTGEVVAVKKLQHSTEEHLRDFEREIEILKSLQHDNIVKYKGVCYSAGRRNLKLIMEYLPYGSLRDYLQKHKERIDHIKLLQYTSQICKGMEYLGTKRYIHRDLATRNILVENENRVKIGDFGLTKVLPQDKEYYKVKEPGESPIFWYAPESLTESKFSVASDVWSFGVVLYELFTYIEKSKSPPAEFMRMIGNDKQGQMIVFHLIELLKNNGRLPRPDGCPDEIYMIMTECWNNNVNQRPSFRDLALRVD

SMILES strings stand for the structures.

The results in this text go back to patent US20260098017A1, “NOVEL AROMATIC RING DERIVATIVE CONTAINING AMIDE SUBSTITUTION AND USE THEREOF” (TIANJIN PHARMACEUTICAL BIOTECHNOLOGY CO., LTD., priority 2022, published 2026).

With `[2H]C([2H])([2H])NC(=O)c1nnc(NC(=O)C2CC2)cc1Nc1cccc(-c2ncn(C)n2)c1OC([2H])([2H])[2H]` [BMS-986165, reference compound], the IC50 – broadly, the concentration needed to halve the response being measured – is more than 10 µM.
